Binding of CDR-mutated scFvs to a peptide of the spike HR2 region

Binding partner: SARS-CoV-2 spike HR2 peptide, sequence PDVDLGDISGINAS.

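Phage display of a naive human antibody library on the peptide gave the parent. The library (AAYL49) carries one to three amino acid substitutions per variant, with no insertions or deletions. In AlphaSeq, yeast of one mating type display the scFv and yeast of the other type display the target. Pairs that bind mate more often; barcode pairs of the diploids are counted by sequencing. Scores were corrected for input abundance and mapped to Kd with protein pairs of known affinity run in the same pool. Each pool was mated in three replicate cultures.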

The variants keep the light chain, the linker and the frameworks of Ab-14 (scFv order VH, three GGGGS repeats, VL).
VH: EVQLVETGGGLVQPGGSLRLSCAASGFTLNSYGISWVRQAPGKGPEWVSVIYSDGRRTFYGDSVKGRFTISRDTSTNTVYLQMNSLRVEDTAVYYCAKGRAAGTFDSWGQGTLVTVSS
VL: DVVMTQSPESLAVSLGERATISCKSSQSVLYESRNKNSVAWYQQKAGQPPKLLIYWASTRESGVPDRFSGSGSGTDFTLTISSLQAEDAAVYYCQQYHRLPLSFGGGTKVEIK

The parent's heavy chain CDRs are GFTLNSYGIS, VIYSDGRRTFYGDSVK, GRAAGTFDS; each variant's own CDRs replace them letter for letter. Scale: log10 of Kd in nM, estimated from mating counts; low values are strong binders. The mean shown is taken over the replicates in which the pair was detected. A pair that was not seen in that replicate is written "n.d."; this usually means weak binding, but a binder can also be missed.

{"CDR-H1": "KFTLNSYGIS", "CDR-H2": "VIYSDGRRTLYGDSVK", "CDR-H3": "GRAAGNFDS", "log10 Kd (nM) by replicate": "n.d. n.d. n.d.", "mean, log10 nM": "n.d.", "signal with controls": "1 of 9 (4.85)"}
{"CDR-H1": "GFTLNSYAIT", "CDR-H2": "VIYSDGRRTFYGDSVK", "CDR-H3": "GRAAGTQDS", "log10 Kd (nM) by replicate": "n.d. n.d. n.d.", "mean, log10 nM": "n.d.", "signal with controls": "0 of 9"}
{"CDR-H1": "GVTLLSYGIS", "CDR-H2": "VIYSDGRRTFYGDSVK", "CDR-H3": "GRAAGTFDS", "log10 Kd (nM) by replicate": "2.24 1.86 n.d.", "mean, log10 nM": "2.05", "signal with controls": "0 of 9"}
{"CDR-H1": "GETLNSYGIS", "CDR-H2": "VIYSDGRRYFYGDSVK", "CDR-H3": "GRAAGTFVS", "log10 Kd (nM) by replicate": "n.d. n.d. 1.74", "mean, log10 nM": "1.74", "signal with controls": "0 of 9"}
{"CDR-H1": "GFTLNSYGIS", "CDR-H2": "VIYSDGSRTFYGDSVK", "CDR-H3": "GRAAGTRDS", "log10 Kd (nM) by replicate": "n.d. n.d. n.d.", "mean, log10 nM": "n.d.", "signal with controls": "0 of 9"}
{"CDR-H1": "GFTLNSYGIS", "CDR-H2": "VICSDGRRTFYGQSVK", "CDR-H3": "GRAANTFDS", "log10 Kd (nM) by replicate": "n.d. n.d. n.d.", "mean, log10 nM": "n.d.", "signal with controls": "0 of 9"}
{"CDR-H1": "GFTLNSYGIS", "CDR-H2": "VIYSDGRRTCYGDSVK", "CDR-H3": "GRNAGTFWS", "log10 Kd (nM) by replicate": "n.d. n.d. n.d.", "mean, log10 nM": "n.d.", "signal with controls": "0 of 9"}
{"CDR-H1": "GFTLNSYGIS", "CDR-H2": "AIYSDGRRTFYGDSVK", "CDR-H3": "GRAASTFVS", "log10 Kd (nM) by replicate": "n.d. n.d. n.d.", "mean, log10 nM": "n.d.", "signal with controls": "2 of 9 (4.99)"}
{"CDR-H1": "GTTLNSYGIS", "CDR-H2": "VLYSDGRRTFYGDSVK", "CDR-H3": "GRAPGTFDS", "log10 Kd (nM) by replicate": "n.d. n.d. 4.97", "mean, log10 nM": "4.97", "signal with controls": "0 of 9"}
{"CDR-H1": "GFTLNSYGIS", "CDR-H2": "VIYSDGRRTFYGDSYK", "CDR-H3": "GRAAGTGDV", "log10 Kd (nM) by replicate": "3.23 2.46 2.87", "mean, log10 nM": "2.86", "signal with controls": "0 of 9"}
{"CDR-H1": "GFTLNSYGID", "CDR-H2": "VIYSDGRRTFYGDSVK", "CDR-H3": "GRAAGQFDS", "log10 Kd (nM) by replicate": "4.24 n.d. n.d.", "mean, log10 nM": "4.24", "signal with controls": "0 of 9"}
{"CDR-H1": "GFTLNSYGIS", "CDR-H2": "VIYSDGRRMFYGDSVK", "CDR-H3": "GRAAGTFDS", "log10 Kd (nM) by replicate": "1.91 1.91 2.27", "mean, log10 nM": "2.03", "signal with controls": "5 of 9 (5.06)"}
{"CDR-H1": "GFTLNSYGIS", "CDR-H2": "VIPSDRRRTFCGDSVK", "CDR-H3": "GRAAGTFDS", "log10 Kd (nM) by replicate": "n.d. n.d. 4.11", "mean, log10 nM": "4.11", "signal with controls": "4 of 9 (4.04)"}
{"CDR-H1": "KFTLNSYGIS", "CDR-H2": "VIYSDGRRTFYGDSIK", "CDR-H3": "GRRAGTFDS", "log10 Kd (nM) by replicate": "3.45 3.16 2.59", "mean, log10 nM": "3.07", "signal with controls": "3 of 9 (3.58)"}
{"CDR-H1": "AFTLNSEGIS", "CDR-H2": "VIYSDGRRTFYGDSVK", "CDR-H3": "GRAAGTFHS", "log10 Kd (nM) by replicate": "n.d. n.d. n.d.", "mean, log10 nM": "n.d.", "signal with controls": "1 of 9 (4.20)"}
{"CDR-H1": "GFTLNSYGIS", "CDR-H2": "VIYSDSRRQFYGDSVK", "CDR-H3": "GRAAGTFMS", "log10 Kd (nM) by replicate": "n.d. 3.44 3.91", "mean, log10 nM": "3.67", "signal with controls": "2 of 9 (3.51)"}
{"CDR-H1": "GRTLNSYGIS", "CDR-H2": "GIYSDGRRTFYGDSVK", "CDR-H3": "GMAAGTFDS", "log10 Kd (nM) by replicate": "4.63 5.62 6.38", "mean, log10 nM": "5.55", "signal with controls": "5 of 9 (4.34)"}
{"CDR-H1": "GFTLNSYGIS", "CDR-H2": "VIYHDERRTFYGDSVK", "CDR-H3": "GRAAGTFDS", "log10 Kd (nM) by replicate": "n.d. n.d. n.d.", "mean, log10 nM": "n.d.", "signal with controls": "1 of 9 (3.97)"}
{"CDR-H1": "GFTLNSYGIK", "CDR-H2": "VIYSDGSRTFYGDSVK", "CDR-H3": "GRAGGTFDS", "log10 Kd (nM) by replicate": "n.d. n.d. n.d.", "mean, log10 nM": "n.d.", "signal with controls": "2 of 9 (3.98)"}
{"CDR-H1": "TFTLNSYMIS", "CDR-H2": "VIRSDGRRTFYGDSVK", "CDR-H3": "GRAAGTFDS", "log10 Kd (nM) by replicate": "n.d. n.d. n.d.", "mean, log10 nM": "n.d.", "signal with controls": "0 of 9"}
{"CDR-H1": "GFTLNSYGIS", "CDR-H2": "VIYSQGWRTFYGDSVK", "CDR-H3": "GRAAGTFDS", "log10 Kd (nM) by replicate": "n.d. n.d. n.d.", "mean, log10 nM": "n.d.", "signal with controls": "0 of 9"}
{"CDR-H1": "GFTLNSRGIS", "CDR-H2": "VIYSDGRRTFYGDSVK", "CDR-H3": "GQAATTFDS", "log10 Kd (nM) by replicate": "n.d. n.d. n.d.", "mean, log10 nM": "n.d.", "signal with controls": "0 of 9"}
{"CDR-H1": "GFTLNSYGIS", "CDR-H2": "AIYSDGRRTFYGDMVK", "CDR-H3": "GRKAGTFDS", "log10 Kd (nM) by replicate": "5.17 4.36 n.d.", "mean, log10 nM": "4.76", "signal with controls": "2 of 9 (4.23)"}
{"CDR-H1": "GFRLNSYMIS", "CDR-H2": "VIYSDGRRTFYGDSVK", "CDR-H3": "GHAAGTFDS", "log10 Kd (nM) by replicate": "n.d. n.d. n.d.", "mean, log10 nM": "n.d.", "signal with controls": "2 of 9 (3.58)"}
{"CDR-H1": "GFTLNSVGIS", "CDR-H2": "VIYSDGRRTFYGDSVK", "CDR-H3": "GRAAGTFDS", "log10 Kd (nM) by replicate": "1.73 1.78 3.62", "mean, log10 nM": "2.38", "signal with controls": "0 of 9"}
{"CDR-H1": "GFRLNSYAIS", "CDR-H2": "VIYSDGRRTFYGDSVK", "CDR-H3": "GRAAGYFDS", "log10 Kd (nM) by replicate": "3.82 n.d. n.d.", "mean, log10 nM": "3.82", "signal with controls": "2 of 9 (3.67)"}
{"CDR-H1": "GFGDNSYGIS", "CDR-H2": "VSYSDGRRTFYGDSVK", "CDR-H3": "GRAAGTFDS", "log10 Kd (nM) by replicate": "n.d. 3.92 n.d.", "mean, log10 nM": "3.92", "signal with controls": "4 of 9 (4.19)"}
{"CDR-H1": "GFLLNSYGIF", "CDR-H2": "VIYSDGRRTFYGDSVK", "CDR-H3": "GRAAGTKDS", "log10 Kd (nM) by replicate": "4.71 3.77 n.d.", "mean, log10 nM": "4.24", "signal with controls": "4 of 9 (3.91)"}
{"CDR-H1": "NFTLNSYMTS", "CDR-H2": "VIYSDGRRTFYGDSVK", "CDR-H3": "GRAAGTFDS", "log10 Kd (nM) by replicate": "n.d. n.d. n.d.", "mean, log10 nM": "n.d.", "signal with controls": "0 of 9"}

As a blank, each scFv also met three strains without target: over library AAYL49, 15% of these pairings were detected, typically at 4.06 and seldom below 2.83. Also given: how often the same scFv was detected with the empty control strains, with their mean in brackets.

From the AlphaSeq antibody data of Engelhart et al. 2022 (doi:10.1038/s41597-022-01779-4), copy in the FLAb collection.